According to PubChem BioAssay AID2014 (Sanford-Burnham Center for Chemical Genomics, 2009):
This is a selection; strong and weak results do not stand in their true shares. Activity calls are given as the source filed them. No rule for the calls is given here.

By UniProt entry, the sequences of proteins in these tests, tags left out.
UniProt P11940, whole entry: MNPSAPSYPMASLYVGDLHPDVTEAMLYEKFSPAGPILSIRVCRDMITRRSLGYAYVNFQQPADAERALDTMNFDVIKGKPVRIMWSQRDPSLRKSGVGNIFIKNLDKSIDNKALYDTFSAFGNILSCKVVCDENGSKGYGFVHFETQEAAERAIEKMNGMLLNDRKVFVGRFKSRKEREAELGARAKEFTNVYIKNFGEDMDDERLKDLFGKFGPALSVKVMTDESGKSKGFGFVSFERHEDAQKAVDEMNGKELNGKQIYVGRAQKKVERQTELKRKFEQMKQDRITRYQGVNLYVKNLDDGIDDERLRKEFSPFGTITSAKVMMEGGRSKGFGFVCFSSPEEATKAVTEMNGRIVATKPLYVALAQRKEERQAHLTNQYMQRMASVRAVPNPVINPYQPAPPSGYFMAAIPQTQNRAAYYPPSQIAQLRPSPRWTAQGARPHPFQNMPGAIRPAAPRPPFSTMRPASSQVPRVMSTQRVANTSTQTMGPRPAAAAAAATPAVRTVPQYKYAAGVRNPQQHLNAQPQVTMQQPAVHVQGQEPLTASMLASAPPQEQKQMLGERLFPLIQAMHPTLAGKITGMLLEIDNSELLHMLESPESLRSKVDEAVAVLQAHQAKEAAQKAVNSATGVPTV

The molecules below were run against Polyadenylate-binding protein 1 (Homo sapiens) (UniProt P11940) (assay: PABP poly(A) RNA binding inhibitors, primary screen, biochemical, fluorescence polarization, uHTS (AID 2014)). Conditions: at 35 µM, hits give high values.

**Q.** With `Cc1c2c(nc3ccccc13)SC(C(Cl)Cl)C2` (centres undefined) as the molecule, how does the inhibition read?
**A.** inactive: -3.9%

**Q.** How did the inhibition turn out when `O=C(OC1CN2CCC1CC2)C12CC3CC(CC(C3)C1)C2` (centres undefined) was run?
**A.** inactive: 4.3%

**Q.** `Cc1cc(=O)[nH]c(N[N+](=O)[O-])n1` was tested. Which inhibition did it give?
**A.** inactive: 2.6%

**Q.** `COc1ccc2nc(NP(=O)(c3ccccc3)c3ccccc3)sc2c1` was tested. Which inhibition did it give?
**A.** inactive: 16%

**Q.** `COc1cc(I)ccc1[As](=O)(O)O` was tested. Which inhibition did it give?
**A.** inactive: 0.7%

**Q.** `COc1ccc(N/C(=N/P(=O)(N2CCOCC2)N2CCOCC2)N2CCOCC2)cc1` was tested. Which inhibition did it give?
**A.** inactive: 10.3%

**Q.** `O=[As](O)(c1ccc(O)cc1)c1ccccc1O` was tested. Which inhibition did it give?
**A.** inactive: 3.2%

**Q.** `C[As](=O)(O)c1cccc(C(=O)O)c1` was tested. Which inhibition did it give?
**A.** inactive: 3%

**Q.** Which inhibition does the source give for `Cc1ccc(OP(=O)(Nc2ccc([N+](=O)[O-])cn2)Oc2ccc(C)cc2)cc1` here?
**A.** inactive: 3.4%

**Q.** How did the inhibition turn out when `CC(C)(C)c1ccc(OP(C)(=O)Nc2ccc(SC(F)(F)F)cc2)cc1` (centres undefined) was run?
**A.** inactive: 4.8%

**Q.** With `Cc1cccc(C)c1OP(C)(N)=O` (centres undefined) as the molecule, how does the inhibition read?
**A.** inactive: -6.3%

**Q.** `O=[N+]([O-])c1ccc2c(c1)C=Nc1ccccc1O2` was tested. Which inhibition did it give?
**A.** inactive: -7.9%

**Q.** How did the inhibition turn out when `Cc1ccc2nc3c(c(C)c2c1)CC(C(Cl)Cl)S3` (centres undefined) was run?
**A.** inactive: -3.7%

**Q.** `CCOC(=O)c1ccc(NP(C)(=O)Oc2ccccc2)cc1` (centres undefined) was tested. Which inhibition did it give?
**A.** inactive: 4.4%

**Q.** For `ClCCSc1nnc(-c2cccnc2)o1`, which inhibition is on record?
**A.** inactive: -9.2%

**Q.** Which inhibition does the source give for `COc1ccccc1OP(C)(=O)Nc1ccc(C)cc1` (centres undefined) here?
**A.** inactive: 3%

**Q.** For `CC(C)c1ccc(OP(=O)(Nc2ccccn2)Oc2ccccc2F)cc1` (centres undefined), which inhibition is on record?
**A.** inactive: 6.8%

**Q.** `Cc1ccc(NP(C)(=O)Oc2ccccc2)c(C)c1` (centres undefined) was tested. Which inhibition did it give?
**A.** inactive: -10.2%

**Q.** How did the inhibition turn out when `COc1ccccc1OP(C)(=O)Nc1cc(Cl)ccc1C` (centres undefined) was run?
**A.** inactive: 5.7%

**Q.** For `CCN(CC)C(=S)SC(NC=O)C(Cl)(Cl)Cl` (centres undefined), which inhibition is on record?
**A.** inactive: 13.4%

**Q.** With `COc1ccc(OP(C)(=O)Nc2cccc(F)c2)cc1` (centres undefined) as the molecule, how does the inhibition read?
**A.** inactive: -2.8%

**Q.** Which inhibition does the source give for `O=[N+]([O-])c1cc([N+](=O)[O-])c(-c2ccn[nH]2)s1` here?
**A.** inactive: -5.4%

**Q.** `Cc1cc(C)cc(OP(C)(N)=O)c1` (centres undefined) was tested. Which inhibition did it give?
**A.** inactive: -1.7%

**Q.** Which inhibition does the source give for `CCCCOc1ccc(C(=O)NCC2(N3CCCCC3)CCCCC2)cc1OC` here?
**A.** inactive: -5.1%

**Q.** How did the inhibition turn out when `Cc1cc(SC(NC(=O)c2ccccc2)C(Cl)(Cl)Cl)nc(C(C)C)n1` (centres undefined) was run?
**A.** inactive: -2.4%

**Q.** Which inhibition does the source give for `CP(=S)(Nn1cnnc1)Oc1ccccc1` (centres undefined) here?
**A.** inactive: -2.1%

**Q.** With `CCOC(=O)Nc1cccc([As](=O)(O)O)c1` as the molecule, how does the inhibition read?
**A.** inactive: -4.2%

**Q.** How did the inhibition turn out when `Cc1cc(SC(NC=O)C(Cl)(Cl)Cl)ncn1` (centres undefined) was run?
**A.** inactive: 4.5%

**Q.** `O=P(Nc1ccccn1)(c1cccc2ccccc12)c1cccc2ccccc12` was tested. Which inhibition did it give?
**A.** inactive: -5.4%

**Q.** `COc1ccccc1OP(C)(=O)Nc1ccccc1` (centres undefined) was tested. Which inhibition did it give?
**A.** inactive: 1%

**Q.** With `CP(=O)(Nc1ccccc1Br)Oc1ccccc1` (centres undefined) as the molecule, how does the inhibition read?
**A.** inactive: 15.3%

**Q.** Which inhibition does the source give for `O=[N+]([O-])c1ccc(Nc2ccc(Oc3ccc([N+](=O)[O-])cc3[N+](=O)[O-])cc2)c([N+](=O)[O-])c1` here?
**A.** inactive: 4.3%

**Q.** Which inhibition does the source give for `COP1(=S)c2c(C)nn(CCC#N)c2N=C(c2ccc(F)cc2)N1C` (centres undefined) here?
**A.** inactive: 3.4%

**Q.** How did the inhibition turn out when `CP(=O)(Nc1ccc(SC(F)(F)F)cc1)Oc1ccc(Cl)cc1` (centres undefined) was run?
**A.** inactive: -0.3%

**Q.** `Cc1cccc(C)c1OP(C)(=O)Nc1ccc(SC(F)(F)F)cc1` (centres undefined) was tested. Which inhibition did it give?
**A.** inactive: -2.4%

**Q.** With `CP(=O)(Oc1ccccc1)OC(c1ccccc1)C(F)(F)F` (centres undefined) as the molecule, how does the inhibition read?
**A.** inactive: 9.8%

**Q.** With `CP(=O)(NC(=O)Nc1ccccc1)Oc1ccccc1` (centres undefined) as the molecule, how does the inhibition read?
**A.** inactive: -2.3%

**Q.** `O=C(COc1ccccc1)OC1CN2CCC1CC2` (centres undefined) was tested. Which inhibition did it give?
**A.** inactive: -1.4%

**Q.** For `CCc1ccc(OP(C)(=O)N2CCN(c3ccc([N+](=O)[O-])cc3)CC2)cc1` (centres undefined), which inhibition is on record?
**A.** inactive: 4.8%

**Q.** `Cc1cc(C)cc(OP(C)(=O)Nc2ccc(SC(F)(F)F)cc2)c1` (centres undefined) was tested. Which inhibition did it give?
**A.** inactive: -20.4%

**Q.** How did the inhibition turn out when `O=C(Nc1ccncc1[N+](=O)[O-])c1ccc([N+](=O)[O-])cc1[N+](=O)[O-]` was run?
**A.** inactive: 2%

**Q.** Which inhibition does the source give for `O=C(OC1CN2CCC1CC2)c1cccc([N+](=O)[O-])c1` (centres undefined) here?
**A.** inactive: -7.1%

**Q.** `CCOP(C)(=S)SCC(=O)NC(C)C(=O)O` (centres undefined) was tested. Which inhibition did it give?
**A.** inactive: 6%

**Q.** How did the inhibition turn out when `CCOC(=O)c1ccc(NP(C)(=O)Oc2ccc(OC)cc2)cc1` (centres undefined) was run?
**A.** inactive: -2.4%

**Q.** For `CCOC(=O)c1ccc(NC(=O)C(C)(CCl)SC)cc1` (centres undefined), which inhibition is on record?
**A.** inactive: 10.6%

**Q.** `CCC(C)N(CC(C)C)C(=S)SC(NC(C)=O)C(Cl)(Cl)Cl` (centres undefined) was tested. Which inhibition did it give?
**A.** inactive: 33.1%

**Q.** For `CP(=O)(Nc1ccccn1)Oc1ccc(Cl)cc1` (centres undefined), which inhibition is on record?
**A.** inactive: 0.7%

**Q.** With `CCC1=CC2Cc3nc4ccc(Cl)cc4c(N)c3C(C1)C2` (centres undefined) as the molecule, how does the inhibition read?
**A.** inactive: -13.5%

**Q.** For `O=P1(Nc2ccccn2)COc2ccccc2OC1`, which inhibition is on record?
**A.** inactive: 6.2%

**Q.** For `O=[N+]([O-])c1cc([N+](=O)[O-])c(-n2nnc3ccccc32)c([N+](=O)[O-])c1`, which inhibition is on record?
**A.** inactive: -3.8%

**Q.** How did the inhibition turn out when `CCOP(=O)(NC(=NC(C)c1ccccc1)NC(C)c1ccccc1)OCC` (centres undefined) was run?
**A.** inactive: -3%

**Q.** With `CCOP(=O)(Nc1ccc(C)cn1)OCC` as the molecule, how does the inhibition read?
**A.** inactive: -3%

**Q.** With `Clc1n[nH]nc1-c1nn[nH][15n]1` as the molecule, how does the inhibition read?
**A.** inactive: 12.8%

**Q.** How did the inhibition turn out when `CC(C)(C)C(=O)NC(Sc1ncccn1)C(Cl)(Cl)Cl` (centres undefined) was run?
**A.** inactive: 3.5%

**Q.** With `CN(C(=O)Cc1ccc(Cl)c(Cl)c1)[C@@H]1CCCC[C@H]1N1CCCC1` as the molecule, how does the inhibition read?
**A.** inactive: 4.4%

**Q.** With `CC(C)/C=N\N=C(\N)N[N+](=O)[O-]` as the molecule, how does the inhibition read?
**A.** inactive: 4.4%

**Q.** Which inhibition does the source give for `O=[As](O)(c1ccccc1Br)c1ccccc1Br` here?
**A.** inactive: -4.2%

**Q.** Which inhibition does the source give for `Cc1nc2ccc3ccccc3c2s1.O=[N+]([O-])c1cc([N+](=O)[O-])c(O)c([N+](=O)[O-])c1` here?
**A.** inactive: 28.1%

**Q.** How did the inhibition turn out when `Cc1nn(-c2ccccc2)c2c1P(=O)(N1CCOCC1)N(C)C(c1ccccc1)=N2` (centres undefined) was run?
**A.** inactive: 7.9%

**Q.** For `Cc1ccc(C(=O)OC2CN3CCC2CC3)cc1` (centres undefined), which inhibition is on record?
**A.** inactive: 10.7%

**Q.** `CC1CCC(C(C)C)C(OP(=O)(Nc2ccccn2)c2ccccc2)C1` (centres undefined) was tested. Which inhibition did it give?
**A.** inactive: -0.2%

**Q.** How did the inhibition turn out when `COc1cc(C2NCCC3(OCCO3)C2(C)C)cc(OC)c1OC.O=[N+]([O-])c1cc([N+](=O)[O-])c(O)c([N+](=O)[O-])c1` (centres undefined) was run?
**A.** inactive: -6.6%

**Q.** Which inhibition does the source give for `CN(C)C1(CNC(=O)c2ccc(S(C)(=O)=O)cc2)CCCCC1` here?
**A.** inactive: -5.2%

**Q.** Which inhibition does the source give for `O=[N+]([O-])c1cc([N+](=O)[O-])c(Nc2nnnn2CCO)c([N+](=O)[O-])c1` here?
**A.** inactive: 9.5%
